Two compounds from PubChem BioAssay (EPA / NIEHS) can be followed below.

The other results are listed elsewhere or left out. Results filed as inconclusive are left out. Activity calls are given as the source filed them. The calls were made as follows: active = hit-call score of the fitted dose curve at least 0.9, where 1 is the maximum; inactive = score below 0.9.

A short description of the assay: ATG_M_61_TRANS: Attagene TRANS-FACTORIAL HepG2 Assay for M61 Transcription Factor (Internal Marker) (AID 2282988). Conditions: HepG2 Attagene TRANS M61 internal marker reporter. As for the experimental part: ATG_TRANS is a cell-based, multiplexed-readout assay that uses HepG2, a human liver cell line, with measurements taken at 24 hours after chemical dosing in a 24-well plate.ATG_M_61_TRANS is one of 30 assay component(s) measured or calculated from the ATG_TRANS assay. It is designed to make measurements of mRNA induction, a form of inducible reporter, as detected with fluorescence intensity signals by Reverse transcription polymerase chain reaction (RT-PCR) and Capillary electrophoresis technology.Data from the assay component ATG_M_61_TRANS was analyzed into 1 assay endpoint. This assay endpoint, ATG_M_61_TRANS, was analyzed in the positive analysis fitting direction relative to DMSO as the negative control and baseline of activity. […] Furthermore, this assay endpoint can be referred to as a secondary readout, because this assay has produced multiple assay endpoints where this one serves a background control function. […]
Human liver HepG2 cells are transiently transfected with multiple reporter transcription units (MRTUs) in 6-well plates using FuGene 6 reagent (Roche; 3 ml FuGene/1 mg DNA). […] A major difference between the CIS and TRANS system is that in CIS activities of endogenous TFs are measured, whereas the TRANS assay evaluates changes in activities of exogenous, chimeric NR-Gal4 proteins. […]
`ClCCNCCCl`: the compound was classed as inactive.
As for `CCOP(=O)(Cl)Cl`, the compound was classed as inactive.
